Shown are actives, neighbours in structure and some others; about 2.5% of the full set was active somewhere.
TrxR1 substrate: substrates of rat thioredoxin reductase 1; AID 588456; 0.01% of 390,000 active; purified TrxR1 substrate turnover, NADPH consumption readout; Potency, µM (titrated, usually from 114 µM); note: nearly all actives have a fitted effect of over 50% in size
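Rat TrxR1, dispensed at 90 nM, was prereduced with 400 uM NADPH (final) for 5 min at ~22 deg C, then incubated with compound 15 min before 400 uM selenite. A first-read NADPH fluorescence drop versus no-compound background flagged substrates.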
miR-21 reporter: raises the signal of a miR-21 reporter | HeLa miR-21 FLuc reporter, luciferase, 48 h | Potency, µM (doses to about 38.3 µM) | 340,000 tested, under 10 active | AID 2288; active = well fitted rising curve with a large enough effect; inconclusive = small, poorly fitted or top-dose-only effect; inactive = no such curve, though single readings can be large or run the other way;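 note: miR-21 action dims this reporter so a rising signal means less miR-21 action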
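HeLa cells stably expressing CMV-driven firefly luciferase with a downstream miR-21 binding sequence, endogenously expressing miR-21, were treated with titrations (up to about 40uM final) for 48 hours at 37 degree Celsius. Luciferase luminescence was read after lysis.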
TrxR1 inh: rat TrxR1 inhibition; 1% of 390,000 active; Potency, µM (doses to about 114 µM), hits mostly inhibitors; recombinant rTrxR1, NADPH fluorescence consumption, selenite substrate; O89049; AID 588453; note: nearly all actives have a fitted effect of over 65% in size
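Rat TrxR1 (90 nM in the dispensed reagent) was pre-reduced with 400 uM NADPH for 5 min at room temperature, then incubated with compound for 15 min. After 400 uM selenite was added, NADPH fluorescence (Ex 340/Em 450 nm) was followed for 8 min.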
ClpP mod: qHTS Assay for Activators of ClpP; purified B. subtilis ClpP, FRET peptide cleavage, 20 min; Potency, µM (series often up to 57.5 µM); 1.9% of 340,000 active; AID 651965, 2013; active = well fitted falling curve with a large enough effect; inconclusive = small, poorly fitted or top-dose-only effect; inactive = no such curve, though single readings can be large or run the other way; note: the source files actives as falling curves though it sought activators and does not explain the sign; nearly all actives have a fitted effect of over 65% in size
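FRET quenching reversal measured ClpP activation: 10 microg/mL B. subtilis ClpP at pH 8 with the FRET-FV decapeptide, read at 430 nm after 320 nm excitation. The 20-min minus 0-min signal was scaled between DMSO/no-enzyme wells and ADEP (5.8 microM final).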
Apoferritin bind: candidate novel general anesthetic via apoferritin binding; P02791; apoferritin/1-aminoanthracene competitive binding, fluorescence; Potency, µM (top dose mostly 77.5 µM), hits mostly inhibitors; 0.074% of 350,000 active; AID 485281; note: nearly all actives have a fitted effect of over 20% in size
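Steps: apoferritin (10 uM) was premixed with half-saturated 1-AMA in PBS, compounds were pin-transferred, plates stood 10 min at room temperature, fluorescence was read at 380/535 nm, and curves were fitted with a Hill equation.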
Of the large screens only hits and unclear results are named; the others gave an inactive call. Unless noted, calls come from the whole dose curve; as a rule, active = well fitted curve in the direction sought with a large enough effect; inconclusive = small, poorly fitted or top-dose-only effect, or another doubt; inactive = no such curve, though single readings can be large; an effect the other way counts as inactive or inconclusive.

COc1ccc(-n2nc(C(=O)NCc3ccco3)c3ccccc3c2=O)cc1	ClpP mod 22µM
Nc1c(C(=O)NCc2ccco2)c2nc3ccccc3nc2n1CCc1ccc(F)cc1	TrxR1 inh inconclusive, ClpP mod 16µM
Nc1c(C(=O)NCc2ccccc2)c2nc3ccccc3nc2n1-c1ccc2c(c1)OCO2	ClpP mod 22µM
Cc1cc(C)c(S(=O)(=O)Nc2ccc(-c3ccc(N4CCCCCC4)nn3)cc2)c(C)c1	none
COc1ccc(NC(=O)CCn2nc(-c3ccccc3OC)c3c(C)cc(C)nc32)cc1	ClpP mod inconclusive
COc1ccc2c(c1)C(=O)CC2	none (no result: miR-21 reporter, Apoferritin bind)
COCCCNC(=O)c1c(N)n(-c2ccc(S(N)(=O)=O)cc2)c2nc3ccccc3nc12	ClpP mod 16µM
Nc1c(C(=O)NCCN2CCOCC2)c2nc3ccccc3nc2n1-c1ccc2c(c1)OCO2	none
COCCNC(=O)c1c(N)n(-c2cccc(C)c2)c2nc3ccccc3nc12	none
Nc1c(C(=O)NCCN2CCOCC2)c2nc3ccccc3nc2n1-c1ccccc1	ClpP mod 11µM
COc1ccc(-n2c(N)c(C(=O)NCc3ccco3)c3nc4ccccc4nc32)cc1	TrxR1 inh inconclusive, ClpP mod 32µM
CC(C)CNC(=O)c1c(N)n(/N=C/c2cccnc2)c2nc3ccccc3nc12	none (no result: TrxR1 substrate, TrxR1 inh, ClpP mod)
CCC(C)NC(=O)c1c(N)n(/N=C/c2cccnc2)c2nc3ccccc3nc12 (stereo not drawn)	ClpP mod 25µM
COc1cc(OC)c(NC(=O)CSc2nccn2C)cc1Cl	none
Cc1nc2cccnc2n1C1CCN(S(=O)(=O)c2ccc(C(C)C)cc2)CC1	none
C=CCNC(=O)c1c(N)n(-c2cccc(S(N)(=O)=O)c2)c2nc3ccccc3nc12	ClpP mod 14µM
Cc1ccc2occ(/C=N/NC(=O)c3ccccc3O)c(=O)c2c1	miR-21 reporter inconclusive
Cc1ccc2occ(/C=C/C(=O)c3ccccc3O)c(=O)c2c1	ClpP mod 16µM
COc1ccc(/C=C2/CCC(CN3CCOCC3)C2=O)cc1 (stereo not drawn)	TrxR1 inh 1.6µM (no result: miR-21 reporter, Apoferritin bind)
O=C1/C(=C\c2ccc(Cl)cc2)CCC1CNc1ccc(Cl)cc1 (stereo not drawn)	TrxR1 inh 7.9µM (no result: miR-21 reporter, Apoferritin bind)
CC1CCC/C(=C\c2ccc(O)cc2)C1=O (stereo not drawn)	none (no result: miR-21 reporter, Apoferritin bind)
CN(C)CC1CCC/C(=C\c2ccc(OC(=O)c3ccc(Cl)cc3)cc2)C1=O (stereo not drawn)	none (no result: miR-21 reporter, Apoferritin bind)
CN(C)CC1CC/C(=C\c2ccc(O)cc2)C1=O (stereo not drawn)	TrxR1 inh 0.71µM (no result: miR-21 reporter, Apoferritin bind)
COc1ccc(/C=C2\CCC(C3CCCC3)C2=O)cc1 (stereo not drawn)	none
CCOc1ccccc1NC(=O)CSc1nc2c(oc3ccccc32)c(=O)n1-c1ccc(C)c(C)c1	none
O=C1CN(C(=O)c2ccc(Cl)cc2Cl)C(c2ccc(F)cc2)c2cc(F)ccc2N1 (stereo not drawn)	none
O=C(COC(=O)CCCN1C(=O)c2cccc3cccc(c23)C1=O)Nc1cccc(C(F)(F)F)c1	ClpP mod 28µM
CN(CC(=O)Nc1cccc(F)c1)C(=O)CCN1C(=O)C2CC=CCC2C1=O (stereo not drawn)	none (no result: miR-21 reporter, Apoferritin bind)
CCN(C(=O)COC(=O)CCCN1C(=O)c2cccc3cccc(c23)C1=O)C1CCS(=O)(=O)C1 (stereo not drawn)	ClpP mod 28µM (no result: miR-21 reporter, Apoferritin bind)
CN(C(=O)COC(=O)CCCN1C(=O)c2cccc3cccc(c23)C1=O)C1CCS(=O)(=O)C1 (stereo not drawn)	none (no result: miR-21 reporter, ClpP mod, Apoferritin bind)
CN(CC(=O)Nc1cccc(F)c1)C(=O)CCCN1C(=O)c2cccc3cccc(c23)C1=O	ClpP mod 14µM (no result: miR-21 reporter, Apoferritin bind)
CC(C)C(=O)Nc1nc2c(ncn2[C@H]2CC(O)[C@@H](CO)O2)c(=O)[nH]1 (stereo partly drawn)	none (no result: miR-21 reporter, Apoferritin bind)
O=C(N/N=C/c1ccco1)c1cccc(N2Cc3ccccc3C2)c1	TrxR1 inh 50µM
O=C(N/N=C/c1ccco1)c1cccc(N2CCCC2=O)c1	ClpP mod 28µM
Cc1cccn2c(=O)c(C(=O)NC(C)c3ccccc3)c(O)nc12 (stereo not drawn)	miR-21 reporter inconclusive
COc1cccc(CNC(=O)CN2C(=O)N(c3cc(C)ccc3C)S(=O)(=O)c3ccccc32)c1OC	none
COc1ccc(OC)c(NC(=O)C(C)n2c(=O)c(-c3ccccc3NC(C)=O)nc3ccccc32)c1 (stereo not drawn)	none
Cc1ccc(C2=Nc3ccccc3N(CC(=O)Nc3ccccc3C)C(=O)C2)cc1C	none
CCCOc1ccc(CNC(=O)C(CC)n2nc(C)c3sc4ccccc4c3c2=O)cc1 (stereo not drawn)	ClpP mod inconclusive
CCc1ccc(CNC(=O)Cn2c(-c3cccs3)cc3cc(F)ccc32)cc1	none
CC(C)CCNC(=O)Cn1c(-c2cccs2)cc2cc(F)ccc21	ClpP mod 32µM
O=C(Cn1c(-c2cccs2)cc2ccccc21)NCCCN1CCN(c2ccc(F)cc2)CC1	ClpP mod 32µM
O=C(Cn1c(-c2cccs2)cc2ccccc21)NCCCN1CCN(c2ccccc2F)CC1	miR-21 reporter inconclusive, ClpP mod inconclusive
O=C(Cn1c(-c2cccs2)cc2cc(F)ccc21)NCCCN1CCN(c2ccccc2F)CC1	ClpP mod 32µM
CCN(C(=O)c1cc2c(s1)-c1ccccc1OC2)c1cccc(C(F)(F)F)c1	none
O=C(CN(c1cccc(C(F)(F)F)c1)S(=O)(=O)c1ccccc1)Nc1cccc(Cl)c1	miR-21 reporter inconclusive
O=C(Nc1ccc(OC(F)(F)C(F)F)c(NC(=O)c2ccc(F)cc2)c1)c1ccc(F)cc1	none (no result: miR-21 reporter, Apoferritin bind)
Nc1ccc(C(=O)Nc2ccc(OC(F)(F)C(F)F)c(NC(=O)c3ccc(N)cc3)c2)cc1	ClpP mod 16µM
CCCCc1cc(=O)oc2cc(C)c3c(C(C)(C)C)coc3c12	none
CCc1ccc2c(CN3CCN(S(=O)(=O)c4cccs4)CC3)cc(=O)oc2c1	ClpP mod 32µM
CSc1nc2n(n1)C(c1ccccn1)C1=C(CC(C)(C)CC1=O)N2 (stereo not drawn)	ClpP mod 25µM
Cc1ccc(C(=O)CCNc2ccc(F)c(Cl)c2)o1	TrxR1 inh 56µM
Cc1cc(C)cc(NC(=O)Cn2cc(S(=O)(=O)NC(C)(C)C)c(S(=O)(=O)NC(C)(C)C)c2)c1	Apoferritin bind inconclusive
O=C(CSc1nc2c(c(=O)[nH]1)CCCC2)Nc1ccc(Br)cc1	none
O=C(c1ccccc1)C(c1ccccc1)[n+]1csc2ccccc21 (stereo not drawn)	none (no result: miR-21 reporter, Apoferritin bind)
CCN1C(=O)C(Cc2nc3ccccc3c(=O)n2C)c2cc(C)ccc21 (stereo not drawn)	none
O=c1cc(CN2CCN(c3ccccc3F)CC2)c2c(ccc3ccccc32)o1	ClpP mod 28µM (no result: TrxR1 substrate, miR-21 reporter, TrxR1 inh, Apoferritin bind)

Screens as filed in PubChem BioAssay.
